pIC50: −log10 of the molar value.
Molecular target: T1, Caspase-7 (Homo sapiens, UniProt P55210)
T1 sequence (P55210 whole entry): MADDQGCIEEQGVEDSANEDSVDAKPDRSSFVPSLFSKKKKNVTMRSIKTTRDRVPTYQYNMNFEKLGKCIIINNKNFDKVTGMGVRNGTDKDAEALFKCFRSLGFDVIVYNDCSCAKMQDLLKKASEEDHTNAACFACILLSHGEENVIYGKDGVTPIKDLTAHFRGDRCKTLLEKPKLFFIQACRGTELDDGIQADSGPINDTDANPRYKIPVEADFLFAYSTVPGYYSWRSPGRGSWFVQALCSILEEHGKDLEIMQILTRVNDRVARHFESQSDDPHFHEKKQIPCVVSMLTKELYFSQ
Assay: Inhibition of caspase 7 by fluorometric assay

O=C1C(=O)N(Cc2cn(CCF)nn2)c2ccc(S(=O)(=O)N3CCC[C@H]3COc3cccnc3)cc21
pIC50: 8.42
